Results on 1 compound are retold here after publication PMC6017698 (Molecules : A Journal of Synthetic Chemistry and Natural …, 2018).

Chains of the proteins cited; added tags and fusions are not shown. Residues count along the entry.
UniProt P06276, 29-602: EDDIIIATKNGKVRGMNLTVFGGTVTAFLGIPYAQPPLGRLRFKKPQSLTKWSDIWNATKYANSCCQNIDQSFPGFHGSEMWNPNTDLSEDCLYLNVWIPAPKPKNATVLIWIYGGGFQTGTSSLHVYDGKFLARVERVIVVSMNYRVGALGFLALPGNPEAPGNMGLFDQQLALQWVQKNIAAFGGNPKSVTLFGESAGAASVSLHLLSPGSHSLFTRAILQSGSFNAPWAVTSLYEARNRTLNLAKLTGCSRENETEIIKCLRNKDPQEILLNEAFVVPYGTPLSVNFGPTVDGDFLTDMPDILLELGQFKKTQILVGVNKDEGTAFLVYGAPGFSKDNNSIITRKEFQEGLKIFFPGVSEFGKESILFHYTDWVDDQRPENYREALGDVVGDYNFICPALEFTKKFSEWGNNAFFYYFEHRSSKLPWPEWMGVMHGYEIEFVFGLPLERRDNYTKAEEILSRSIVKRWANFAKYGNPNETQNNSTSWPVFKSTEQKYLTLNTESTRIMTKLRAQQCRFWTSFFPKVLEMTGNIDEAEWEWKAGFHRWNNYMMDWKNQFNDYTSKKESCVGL

This test has as its target human serum BChE (Homo sapiens, UniProt P06276). The test is classed as biochemical. To be noted: mean ± SEM of at least three experiments, each in duplicate, read-out: hBChE IC50.

For `CC1=CC2Cc3nc4cc(Cl)ccc4c(N)c3C(C1)C2` (stereo not shown) [huprine Y, reference compound], the IC50 was determined as 180 ± 10 nM.

For orientation: IC50 means the concentration needed to halve the response being measured.
